Source: patent US20040146519A1, “Inducing cellular immune responses to carcinoembryonic antigen using peptide and nucleic acid compositions” (priority 2002, published 2004)

What was measured:
HLA-A*6802 = HLA-A*6802 (Homo sapiens, UniProt P04439, A269V/D140Y/D185E/E176V/E277Q/E87N/F33Y/G231S/I121R/I166T/I218V/L180W/L300P/L318F/N151K/P208A/P217A/Q86R/R138H/R169H/S129P/T345S/V36M); test: HLA class I binding assay, purified HLA-A*6802; conditions: Table XXVIIa, binding affinity
HLA-A*0101 = HLA-A*0101 (Homo sapiens, UniProt P04439, A114D/A174V/A182V/D101N/D185E/E176A/E190D/L180R/Q94H/R68K/S129P/T187R/V100A/V91M/W191G); test: HLA class I binding assay, purified HLA-A*0101; conditions: for A*0101: relative binding ratio = IC50 of standard peptide / IC50 of test peptide, CEA A01 supermotif peptides; for IC50: read-out: A*[…], Table XXVb, A01 analog peptides
HLA-A*0301 = HLA-A*0301 (Homo sapiens, UniProt P04439); test: HLA class I binding assay, purified HLA-A*0301; conditions: for A*0301 binding data: CEA A03 motif peptides, unit not given; for IC50: Table XXIII, binding affinity
HLA-A*1101 = HLA-A*1101 (Homo sapiens, UniProt P04439, A114D/D185E/E176A/F33Y/L180Q/S129P/T187R); test: HLA class I binding assay, purified HLA-A*1101; conditions: CEA A11 motif peptides; unit not given
[1] = test system: A3-supertype molecules (A*0301, A*1101, A*3101, A*3301, A*6801); test: A3-supertype cross-reactive binding (alleles bound of five tested); set-up: species or system human; conditions: Table XXIII
Experimental: Using methodology similar to that used to develop HLA-A2 analogs, analogs of HLA-A3 and HLA-B7 supermotif-bearing epitopes are also generated. […] The analog peptides are then tested for the ability to bind A*03 and A*11 (prototype A3 supertype alleles).

[2] = test system: .221A2.1 cells pulsed with peptide; conditions: Kawashima et al., Hum. Immunol. 59:1-14, 1998; cited from earlier work
HLA-A*3101 = HLA-A*3101 (Homo sapiens, UniProt P04439, A270S/D185E/E176V/E277Q/F33T/G231S/G80R/H175R/I121M/I218V/I322F/K168Q/L300P/L318F/M331R/P217A/Q94H/R138Q/T323A/T345S/T97I/V358M); test: HLA class I binding assay, purified HLA-A*3101; conditions: Table XXIII, binding affinity

SMILES: CC(C)C[C@H](NC(=O)[C@@H](N)C(C)C)C(=O)N[C@@H](Cc1ccc(O)cc1)C(=O)NCC(=O)N1CCC[C@H]1C(=O)N[C@@H](CC(=O)O)C(=O)N[C@@H](CC(=O)O)C(=O)N1CCC[C@H]1C(=O)N[C@H](C(=O)N[C@H](C(=O)O)C(C)C)[C@@H](C)O [CEA.411.V10]
IC50 (HLA-A*6802): > 10 µM

SMILES: CC[C@H](C)[C@H](NC(=O)[C@@H](NC(=O)[C@@H]1CCCN1)[C@@H](C)O)C(=O)N[C@@H](CO)C(=O)N1CCC[C@H]1C(=O)N[C@@H](CO)C(=O)N[C@@H](Cc1ccc(O)cc1)C(=O)N[C@H](C(=O)N[C@@H](Cc1ccc(O)cc1)C(=O)N[C@@H](Cc1ccc(O)cc1)C(=O)O)[C@@H](C)O [418/10]
A*0101 (HLA-A*0101): 0.0770 | A*0301 binding data (HLA-A*0301): 0.0006 | IC50 (HLA-A*0301): > 10000 nM | A*1101 binding data (HLA-A*1101): 0.0018 | No. of A3 Alleles Crossbound [1]: 3

SMILES: C[C@H](NC(=O)[C@H](CO)NC(=O)[C@@H](N)Cc1c[nH]cn1)C(=O)N[C@@H](CO)C(=O)N[C@@H](CC(N)=O)C(=O)N1CCC[C@H]1C(=O)N[C@@H](CO)C(=O)N1CCC[C@H]1C(=O)N[C@@H](CCC(N)=O)C(=O)N[C@@H](Cc1ccc(O)cc1)C(=O)O [616/10]
A*0101 (HLA-A*0101): 0.3400 | A*0301 binding data (HLA-A*0301): 0.0006 | A*1101 binding data (HLA-A*1101): 0.0001

SMILES: CC(C)C[C@H](NC(=O)[C@H](CC(N)=O)NC(=O)[C@H](CC(C)C)NC(=O)[C@H](CC(N)=O)NC(=O)[C@H](C)NC(=O)CNC(=O)[C@H](CO)NC(=O)[C@H](CC(C)C)NC(=O)[C@@H](N)Cc1ccc(O)cc1)C(=O)O [compound 605]
previously identified as an epitope [2]: previously identifed

SMILES: CC(C)C[C@H](NC(=O)[C@H](CC(C)C)NC(=O)[C@@H](NC(=O)[C@H](CC(C)C)NC(=O)[C@@H](NC(=O)[C@@H](N)CCCNC(=N)N)[C@@H](C)O)[C@@H](C)O)C(=O)N[C@@H](CO)C(=O)N[C@H](C(=O)N[C@H](C(=O)N[C@@H](CCCNC(=N)N)C(=O)O)[C@@H](C)O)C(C)C [CEA.376]
IC50 (HLA-A*3101): 6.2 nM

More lines, now with the values ahead:

IC50 (HLA-A*0101): 56.8 nM
SMILES: C[C@H](NC(=O)[C@@H]1CCCN1C(=O)CNC(=O)[C@@H]1CCCN1C(=O)[C@@H](NC(=O)[C@H](CC(=O)O)NC(=O)[C@H](CCC(N)=O)NC(=O)[C@@H](N)CCC(N)=O)[C@@H](C)O)C(=O)N[C@@H](Cc1ccc(O)cc1)C(=O)O [Peptide 57.0004]

IC50 (HLA-A*0301): 69 nM
SMILES: CC(C)[C@H](NC(=O)[C@@H](N)[C@@H](C)O)C(=O)N[C@@H](CO)C(=O)N1CCC[C@H]1C(=O)N[C@@H](CO)C(=O)N[C@@H](Cc1ccc(O)cc1)C(=O)N[C@H](C(=O)N[C@@H](Cc1ccc(O)cc1)C(=O)N[C@@H](Cc1ccc(O)cc1)C(=O)N[C@@H](CCCCN)C(=O)O)[C@@H](C)O [CEA.419.V2K10]

IC50 (HLA-A*0101): 37.9 nM
SMILES: C[C@@H](O)[C@H](NC(=O)[C@H](Cc1ccc(O)cc1)NC(=O)[C@H](CO)NC(=O)[C@@H]1CCCN1C(=O)[C@H](CO)NC(=O)[C@H](CC(=O)O)NC(=O)[C@@H](NC(=O)[C@@H]1CCCN1)[C@@H](C)O)C(=O)N[C@@H](Cc1ccc(O)cc1)C(=O)O [Peptide 57.0011]

Each block holds one compound with its values, some of them ahead of it.
